The values that follow come from ChEMBL document CHEMBL1139291, “Syntheses and opioid receptor binding properties of carboxamido-substituted opioids” (Bioorg Med Chem Lett, 2009).

The chains behind the UniProt entries cited, without tags or fusion partners. Where a name states a change or a piece, a line headed by the entry shows the natural chain unless it says otherwise.
UniProt P41145: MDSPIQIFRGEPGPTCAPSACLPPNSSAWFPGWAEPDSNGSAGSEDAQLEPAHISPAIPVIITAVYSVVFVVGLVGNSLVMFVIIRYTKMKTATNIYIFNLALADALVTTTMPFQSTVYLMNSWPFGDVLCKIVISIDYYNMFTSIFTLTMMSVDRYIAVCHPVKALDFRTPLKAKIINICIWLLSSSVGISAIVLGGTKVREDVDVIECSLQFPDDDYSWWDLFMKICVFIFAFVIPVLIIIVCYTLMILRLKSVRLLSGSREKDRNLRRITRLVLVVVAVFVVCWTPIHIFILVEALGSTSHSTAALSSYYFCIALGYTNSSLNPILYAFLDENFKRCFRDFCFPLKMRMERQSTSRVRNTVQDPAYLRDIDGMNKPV

In the assay the target is Kappa-type opioid receptor (Homo sapiens, UniProt P41145). Briefly: biochemical. It is filed as cell-based, CHO.

As a reminder, the Ki is the equilibrium dissociation constant of an inhibitor or competing ligand from its target. Low values mean a stronger hold on the target, high ones a looser hold on the target. As to `C=C1CC[C@@]2(O)[C@H]3Cc4ccc(O)c5c4[C@@]2(CCN3CC2CC2)[C@H]1O5`, the Ki worked out at 0.12 nM.
